Experimental data published in paper PMC1500806, “Carrageenan Is a Potent Inhibitor of Papillomavirus Infection” (PLoS Pathogens, 2006).

Tested on: HeLa cells
Assay: Cytotoxicity (WST-1 turnover and/or cell morphology)
Assay type: cell-based
Experimental: Compounds were tested using a previously described PsV-based papillomavirus inhibition assay. Briefly, HeLa cells were plated at 6,000 cells/well in 50 μl of medium in 96-well plates. Candidate inhibitors were dissolved at 1–10 mg/ml (or reconstituted as directed by manufacturer) in sterile water or appropriate solvent, then subjected to a ten-point three-fold serial dilution covering an appropriate concentration range. Diluted candidate inhibitor (50 μl) was added to preplated HeLa cells, followed by 50 μl of diluted PsV stock. The cells were incubated for 24 h, fed by addition of 100 μl of DMEM-10, then subjected to flow cytometric analysis 48–56 h after infection. IC50 values and 95% CI were determined using Prism (GraphPad Software, San Diego, California, United States) to calculate a variable slope sigmoidal dose-response curve.
Cytotoxicity was defined as a >50% reduction in the net turnover of the metabolic substrate WST-1 (Roche, Indianapolis, Indiana, United States) and/or by the appearance of dramatic alterations in the microscopic appearance of cell morphology at the time of harvest.

Substance: Cellulose sulfate
- Cytotoxic dose: None of the compounds scored as cytotoxic at doses ≤100 μg/ml, except cellulose sulfate, which was cytotoxic at doses ≥11 μg/ml.

Substance: Methyl ß-cyclodextrin
- Cytotoxicity: >1,000 μg/ml

Substance: Polystyrene sulfonate [Polystyrene sulfonate, 1,430 kDa]
- Cytotoxicity: 1,400 μg/ml
